Data reported in patent publication US20140243227A1, “CULTURE MEDIA FOR STEM CELLS” (Koninklijke Nederlandse Akademie van Wetenschappen, priority 2011, published 2014).

Tested on: mouse prostate organoids

Row | Compound | Expression of basal markers p63 and Cytokeratin 5 (RT-PCR) (ENR+1 nM DHT) | Expression of putative stem cell markers Lgr5 and Tnfrsf19 (RT-PCR) (ENR+1 nM DHT) | Increase of growth/doublings (ENR vs ENR+1 nM DHT) | Expansion of cultures compared with no testosterone (ENR+DiHydro Testosterone)
1 | C[C@]12CCC(=O)C[C@@H]1CC[C@@H]1[C@@H]2CC[C@]2(C)[C@@H](O)CC[C@@H]12 [DHT, dihydrotestosterone] | downregulated | downregulated |  | 
2 | C[C@]12CC[C@H]3[C@@H](CCC4=CC(=O)CC[C@@]43C)[C@@H]1CC[C@@H]2O [testosterone] |  |  | up to 3 fold | expand the same as without testosterone
